Columns and labels:
[1] = target: HSA (human serum albumin) (Homo sapiens, UniProt P02768); assay: HSA binding constants (TRANSIL HSA Binding Kit)
[2] = Brain lipid-water partition coefficient log MAbrain (membrane affinity) on immobilized brain lipid membranes; assay type: physicochemical; settings: Table 6; parameter set for free fraction in brain

Protein sequences, listed by entry. Tags and fused reporters are not part of them. Residues count along the entry.
UniProt P02768, 25-609: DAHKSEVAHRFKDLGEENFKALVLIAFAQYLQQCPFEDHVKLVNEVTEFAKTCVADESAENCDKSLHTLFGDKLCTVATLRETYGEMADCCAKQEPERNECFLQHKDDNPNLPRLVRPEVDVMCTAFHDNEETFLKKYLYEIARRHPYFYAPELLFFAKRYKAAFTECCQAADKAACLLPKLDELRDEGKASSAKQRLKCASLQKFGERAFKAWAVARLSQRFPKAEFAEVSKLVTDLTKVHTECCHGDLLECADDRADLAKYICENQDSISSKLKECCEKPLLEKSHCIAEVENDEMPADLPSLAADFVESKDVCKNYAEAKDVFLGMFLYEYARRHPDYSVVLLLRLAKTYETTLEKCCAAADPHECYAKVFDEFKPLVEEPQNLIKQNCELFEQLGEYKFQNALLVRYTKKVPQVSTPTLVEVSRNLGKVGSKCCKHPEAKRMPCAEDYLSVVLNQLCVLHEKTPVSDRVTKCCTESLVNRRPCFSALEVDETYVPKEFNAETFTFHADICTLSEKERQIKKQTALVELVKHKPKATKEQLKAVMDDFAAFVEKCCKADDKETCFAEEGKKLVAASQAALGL

Row | Compound | Kd [1] | logMA_brain [2]
1 | CN(C)CCCN1c2ccccc2Sc2ccc(Cl)cc21 [Chlorpromazine, chlorpromazine] | 21 µM | –
2 | O=C1NC(=O)C(c2ccccc2)(c2ccccc2)N1 [Phenytoin] | – | 2.02
